Biological target: the molecule itself
Assay: SEC-MALS; Superdex 200 with on-line 18-angle light scattering; 25 µM protein injected; 10 mM HEPES pH 7.0, 150 mM NaCl, 1 mM DTT

Row | Protein | stoichiometry N
1 | mDia1 DID-DD (131–457) (domain or fragment, mouse, UniProt O08808 131-457, looked up, mDia1, mouse, residues 131-457 (DID-DD, lacks the CC region); A selenomethionyl-substituted form was also crystallised for phasing (SeMet #1); also called (DID-DD)2; source: E. coli BL21(DE3), purified (DEAE sepharose, MonoQ, MonoS, Superdex 200)) ESSRSAMMYIQELRSGLRDMHLLSCLESLRVSLNNNPVSWVQTFGAEGLASLLDILKRLHDEKEETSGNYDSRNQHEIIRCLKAFMNNKFGIKTMLETEEGILLLVRAMDPAVPNMMIDAAKLLSALCILPQPEDMNERVLEAMTERAEMDEVERFQPLLDGLKSGTSIALKVGCLQLINALITPAEELDFRVHIRSELMRLGLHQVLQELREIENEDMKVQLCVFDEQGDEDFFDLKGRLDDIRMEMDDFGEVFQIILNTVKDSKAEPHFLSILQHLLLVRNDYEARPQYYKLIEECVSQIVLHKNGTDPDFKCRHLQIDIERLVD | 2
2 | mDia1 G-DID-DD-CC (residues 67–570) (domain or fragment, mouse, UniProt O08808 67-570, looked up, mDia1, mouse, residues 67-570 (G-DID-DD-CC); also called N-terminal regulatory fragment; G-DID-DD-CC dimer; source: E. coli BL21(DE3), purified (DEAE sepharose, MonoQ, MonoS, Superdex 200)) GDDPTAQSLQDISDEQVLVLFEQMLVDMNLNEEKQQPLREKDIVIKREMVSQYLHTSKAGMNQKESSRSAMMYIQELRSGLRDMHLLSCLESLRVSLNNNPVSWVQTFGAEGLASLLDILKRLHDEKEETSGNYDSRNQHEIIRCLKAFMNNKFGIKTMLETEEGILLLVRAMDPAVPNMMIDAAKLLSALCILPQPEDMNERVLEAMTERAEMDEVERFQPLLDGLKSGTSIALKVGCLQLINALITPAEELDFRVHIRSELMRLGLHQVLQELREIENEDMKVQLCVFDEQGDEDFFDLKGRLDDIRMEMDDFGEVFQIILNTVKDSKAEPHFLSILQHLLLVRNDYEARPQYYKLIEECVSQIVLHKNGTDPDFKCRHLQIDIERLVDQMIDKTKVEKSEAKATELEKKLDSELTARHELQVEMKKMENDFEQKLQDLQGEKDALDSEKQQITAQKQDLEAEVSKLTGEVAKLSKELEDAKNEMASLSAVVVAPSVSSSAA | 2

— publication PMC2948019 (PLoS ONE, 2010)
